Protein sequences, listed by entry. Tags and fused reporters are not part of them.
UniProt Q05397, whole entry: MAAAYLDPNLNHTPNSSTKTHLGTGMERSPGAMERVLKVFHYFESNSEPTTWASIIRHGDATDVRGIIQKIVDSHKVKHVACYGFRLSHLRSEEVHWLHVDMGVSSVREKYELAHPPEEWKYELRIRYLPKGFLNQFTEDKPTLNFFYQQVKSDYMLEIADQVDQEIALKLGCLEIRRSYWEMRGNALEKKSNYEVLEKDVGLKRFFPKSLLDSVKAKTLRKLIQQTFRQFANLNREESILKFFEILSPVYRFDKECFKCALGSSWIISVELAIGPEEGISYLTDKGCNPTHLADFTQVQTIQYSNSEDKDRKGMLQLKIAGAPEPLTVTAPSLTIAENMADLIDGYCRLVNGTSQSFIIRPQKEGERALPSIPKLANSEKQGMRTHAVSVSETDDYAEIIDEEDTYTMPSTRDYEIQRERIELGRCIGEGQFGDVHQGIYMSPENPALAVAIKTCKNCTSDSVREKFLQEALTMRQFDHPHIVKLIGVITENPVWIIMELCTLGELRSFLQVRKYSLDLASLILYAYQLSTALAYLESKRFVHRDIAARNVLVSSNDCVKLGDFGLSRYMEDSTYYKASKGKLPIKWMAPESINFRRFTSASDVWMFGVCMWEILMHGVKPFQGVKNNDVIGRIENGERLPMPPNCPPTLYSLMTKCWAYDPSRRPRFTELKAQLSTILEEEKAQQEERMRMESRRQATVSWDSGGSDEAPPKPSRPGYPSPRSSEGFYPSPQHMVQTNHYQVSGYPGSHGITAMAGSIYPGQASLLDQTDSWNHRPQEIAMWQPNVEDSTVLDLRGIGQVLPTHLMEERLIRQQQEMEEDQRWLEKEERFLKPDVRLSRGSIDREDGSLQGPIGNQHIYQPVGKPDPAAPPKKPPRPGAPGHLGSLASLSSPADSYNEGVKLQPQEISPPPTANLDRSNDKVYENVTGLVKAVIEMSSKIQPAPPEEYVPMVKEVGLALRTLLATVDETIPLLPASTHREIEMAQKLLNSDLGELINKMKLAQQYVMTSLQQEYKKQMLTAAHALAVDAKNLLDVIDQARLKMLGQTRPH

According to ChEMBL document CHEMBL1157465, “Design, synthesis, and biological evaluation of novel 3-aryl-4-(1H-indole-3yl)-1,5-dihydro-2H-pyrrole-2-ones as vascular endothelial growth factor receptor (VEGF-R) inhibitors” (J Med Chem, 2008):

Molecular target: Focal adhesion kinase 1 (Homo sapiens, UniProt Q05397)
Assay: Inhibition of human recombinant FAK

Structure (SMILES): COc1cc(C2=C(c3cn(COCc4ccccc4)c4ccccc34)CNC2=O)cc(OC)c1OC
- IC50: 40 µM
